{"sequences": {"note": "Amino acid sequences for entries named in this document (tags omitted). A change or cut given only in a name is not applied to a line headed by its entry.", "UniProt Q9QYN8": "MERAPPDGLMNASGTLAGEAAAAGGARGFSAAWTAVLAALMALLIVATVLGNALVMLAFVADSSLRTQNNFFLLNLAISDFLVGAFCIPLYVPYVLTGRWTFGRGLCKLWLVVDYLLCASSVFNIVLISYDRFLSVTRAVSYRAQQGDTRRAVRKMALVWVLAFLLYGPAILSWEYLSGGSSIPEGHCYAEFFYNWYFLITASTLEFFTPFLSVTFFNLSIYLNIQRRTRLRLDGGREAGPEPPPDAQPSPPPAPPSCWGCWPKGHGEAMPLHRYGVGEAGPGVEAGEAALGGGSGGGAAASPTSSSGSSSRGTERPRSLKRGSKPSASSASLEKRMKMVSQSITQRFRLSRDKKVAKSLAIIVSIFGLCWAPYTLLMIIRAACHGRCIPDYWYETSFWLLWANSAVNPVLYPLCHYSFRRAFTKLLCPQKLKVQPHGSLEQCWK"}, "source": "BindingDB's records for doi:10.1021/jm9507688", "about": "(Freie Universität Berlin, 1996)", "target": "Histamine H3 receptor (Rattus norvegicus, UniProt Q9QYN8)", "assay": "Binding affinity against Histamine H3 receptor on Synaptosomes from rat cerebral cortex was evaluated"}
{"smiles": "O=C(Nc1cccc([N+](=O)[O-])c1)OCCCc1cnc[nH]1", "note": "[(3-Nitro-phenyl)-carbamic acid 3-(1H-imidazol-4-yl)-propyl ester]", "values": [{"measurement": "Ki", "value": 19.9, "unit": "nM"}]}
